{
  "source": "PubChem BioAssay AID1745844",
  "about": "(Carcinogenic Potency Database (CPDB), 2022)",
  "tested_on": "rodent lifetime carcinogenesis bioassay, tumor incidence TD50",
  "assay": "chronic cancer bioassays in animals – CPDB, compiled studies (AID 1745844)",
  "note": "The source made the active and inactive calls. No rule for the calls is given here.",
  "data": [
    {"smiles": "OCCN(CCO)CCO", "values": [
      {"measurement": "TD50", "setting": "mouse, strain B6C3F1, females, in drinking water, site: any site (literature study), lesion: one or several types, types not named, dosed 82 weeks, study length 82 weeks", "value": "inactive: 63500 mg/kg/day"},
      {"measurement": "TD50", "setting": "mouse, strain B6C3F1, females, in drinking water, site: liver, lesion: hemangioma, dosed 82 weeks, study length 82 weeks", "value": "inactive: 42000 mg/kg/day"},
      {"measurement": "carcinogen call", "setting": "mouse, strain B6C3F1, females, in drinking water, site: lung, lesion: adenoma, dosed 82 weeks, study length 82 weeks", "value": "inactive: negative"},
      {"measurement": "TD50", "setting": "mouse, strain B6C3F1, males, in drinking water, site: any site (literature study), lesion: one or several types, types not named, dosed 82 weeks, study length 82 weeks", "value": "inactive: 74700 mg/kg/day"},
      {"measurement": "carcinogen call", "setting": "mouse, strain B6C3F1, males, in drinking water, site: liver, lesion: hepatocellular carcinoma, dosed 82 weeks, study length 82 weeks", "value": "inactive: negative"},
      {"measurement": "carcinogen call", "setting": "mouse, strain B6C3F1, males, in drinking water, site: lung, lesion: adenocarcinoma, dosed 82 weeks, study length 82 weeks", "value": "inactive: negative"},
      {"measurement": "carcinogen call", "setting": "mouse, strain B6C3F1, males, in drinking water, site: lung, lesion: adenoma, dosed 82 weeks, study length 82 weeks", "value": "inactive: negative"},
      {"measurement": "TD50", "setting": "mouse, strain ICR/Jcl, females, in feed, site: all sites, lesion: several types, types named in the paper, dosed 106 weeks, study length 108 weeks", "value": 1290, "unit": "mg/kg/day"},
      {"measurement": "TD50", "setting": "mouse, strain ICR/Jcl, females, in feed, site: any site (literature study), lesion: malignant tumor, dosed 106 weeks, study length 108 weeks", "value": 100, "unit": "mg/kg/day"},
      {"measurement": "TD50", "setting": "mouse, strain ICR/Jcl, females, in feed, site: any site (literature study), lesion: several types, types named in the paper, dosed 106 weeks, study length 108 weeks", "value": 88.8, "unit": "mg/kg/day"},
      {"measurement": "carcinogen call", "setting": "mouse, strain ICR/Jcl, males, in feed, site: any site (literature study), lesion: malignant tumor, dosed 110 weeks, study length 117 weeks", "value": "positive"},
      {"measurement": "carcinogen call", "setting": "rat, strain F344/DuCrj, females, in drinking water, site: any site (literature study), lesion: several types, types named in the paper, dosed 104 weeks, study length 113 weeks", "value": "inactive: negative"},
      {"measurement": "TD50", "setting": "rat, strain F344/DuCrj, females, in drinking water, site: liver, lesion: neoplastic nodule, dosed 104 weeks, study length 113 weeks", "value": "inactive: 47000 mg/kg/day"},
      {"measurement": "carcinogen call", "setting": "rat, strain F344/DuCrj, males, in drinking water, site: any site (literature study), lesion: several types, types named in the paper, dosed 104 weeks, study length 113 weeks", "value": "inactive: negative"},
      {"measurement": "TD50", "setting": "rat, strain F344/DuCrj, males, in drinking water, site: liver, lesion: hepatocellular carcinoma, dosed 104 weeks, study length 113 weeks", "value": "inactive: 53600 mg/kg/day"},
      {"measurement": "TD50", "setting": "rat, strain F344/DuCrj, males, in drinking water, site: liver, lesion: neoplastic nodule, dosed 104 weeks, study length 113 weeks", "value": "inactive: 9590 mg/kg/day"}
    ]}
  ]
}
